Results on one compound are retold here after patent US20030232839A1, “Treatment of sleeping disorders using CNS sleep target modulators” (Hypnion, Inc., priority 2002, published 2003).

For this data set, the system named is Male Wistar rats. Nature of the data set: SCORE-2000 sleep-wake assay (EEG/EMG, locomotor activity, body temperature). The settings on record: 30 mg/kg.

Regarding `O=C(OC1CCCC1)C1CN(CCCn2nc3ccccn3c2=O)CCN1c1cccc(Cl)c1` (stereo not drawn) [HY-2725], the “Body Temp (CV) Adverse Event” value is on record as “No”, the “Disproportional Motor Inhibition” value is “None” and the “Rebound Insomnia” value is “None”.
